Data: patent US6936585B2, “Corticotropin releasing factor 2 receptor agonists” (priority 2002, dated 2005)

Key:
CRF1R = target: T1, CRF1R (Homo sapiens, UniProt P34998); test: CRF1R agonist activation (EC50 / Emax), called comparative CRF binding; assay type: cell-based; conditions: for Emax: read-out: CRF1R Emax
T1 sequence (P34998 24-415): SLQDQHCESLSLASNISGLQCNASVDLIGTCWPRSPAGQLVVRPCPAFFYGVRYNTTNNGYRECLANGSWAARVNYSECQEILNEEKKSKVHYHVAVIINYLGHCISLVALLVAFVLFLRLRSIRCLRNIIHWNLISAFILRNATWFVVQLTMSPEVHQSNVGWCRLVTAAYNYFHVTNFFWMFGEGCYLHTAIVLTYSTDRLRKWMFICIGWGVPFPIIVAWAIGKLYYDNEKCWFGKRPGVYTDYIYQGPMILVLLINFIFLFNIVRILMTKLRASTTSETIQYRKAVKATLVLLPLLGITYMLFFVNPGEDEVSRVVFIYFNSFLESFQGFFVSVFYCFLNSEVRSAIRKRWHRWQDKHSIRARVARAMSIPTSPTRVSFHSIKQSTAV
Method in brief: (§1)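 Cells expressing full-length human CRF1R or CRF2R were exposed to peptide or vehicle control, and receptor activation was gauged as cAMP induction. cAMP was measured in cell lysates or via a cAMP-responsive element driving a reporter gene such as luciferase, CAT, GFP or alkaline phosphatase.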

CRF2R = target: T2, CRF2R (Homo sapiens, UniProt Q13324); test: CRF2R agonist activation (EC50 / Emax), called comparative CRF binding; assay type: cell-based; conditions: for Emax: read-out: CRF2R Emax
T2 sequence (Q13324 1-411): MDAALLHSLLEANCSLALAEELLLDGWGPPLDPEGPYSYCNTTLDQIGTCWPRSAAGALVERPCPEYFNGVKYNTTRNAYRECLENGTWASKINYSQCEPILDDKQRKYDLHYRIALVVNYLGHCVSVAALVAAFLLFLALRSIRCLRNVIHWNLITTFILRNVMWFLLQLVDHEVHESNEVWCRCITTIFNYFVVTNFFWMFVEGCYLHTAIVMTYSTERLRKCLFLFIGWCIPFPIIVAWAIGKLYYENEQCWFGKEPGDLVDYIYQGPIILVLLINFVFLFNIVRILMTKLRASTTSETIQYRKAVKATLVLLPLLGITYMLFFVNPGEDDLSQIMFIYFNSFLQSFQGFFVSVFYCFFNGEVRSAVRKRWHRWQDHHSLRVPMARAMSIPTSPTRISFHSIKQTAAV
Method in brief: as §1

Row | Compound | Emax (CRF1R) | Emax (CRF2R) | EC50 (CRF1R; CRF1R EC50) | EC50 (CRF2R)
1 | CC[C@H](C)[C@H](NC(=O)[C@@H](NC(=O)[C@H](CC(=O)O)NC(=O)[C@H](CC(C)C)NC(=O)[C@H](CC(C)C)NC(=O)[C@H](CC(C)C)NC(=O)[C@H](CCCNC(=N)N)NC(=O)[C@H](CC(N)=O)NC(=O)[C@H](CC(N)=O)NC(=O)[C@H](C)NC(=O)[C@H](C)NC(=O)[C@H](CCC(N)=O)NC(=O)[C@H](CCC(N)=O)NC(=O)[C@H](CCCCN)NC(=O)[C@H](CCC(=O)O)NC(=O)[C@H](CCCCN)NC(=O)[C@H](CCC(=O)O)NC(=O)[C@H](CCC(N)=O)NC(=O)[C@H](CCCCN)NC(=O)[C@H](CCC(=O)O)NC(=O)[C@@H](NC(=O)[C@H](CCC(=O)O)NC(=O)[C@@H](NC(=O)[C@@H](NC(=O)[C@H](CCCCN)NC(=O)[C@H](CCCNC(=N)N)NC(=O)[C@H](CC(C)C)NC(=O)[C@H](CC(C)C)NC(=O)[C@@H](NC(=O)[C@@H](NC(=O)[C@@H]1CCCN1C(=O)[C@H](CC(C)C)NC(=O)[C@H](CC(=O)O)NC(=O)[C@@H](NC(=O)[C@H](CO)NC(=O)[C@@H](NC(=O)[C@@H]1CCCN1C(=O)[C@@H]1CCCN1C(=O)CNC(=O)[C@@H]1CCC(=O)N1)[C@@H](C)CC)[C@@H](C)CC)[C@@H](C)CC)[C@@H](C)CC)C(C)C)[C@@H](C)CC)[C@@H](C)CC)[C@@H](C)O)C(N)=O [compound 297] | 27.2% | 88.3% | – | –
2 | CC[C@H](C)[C@H](NC(=O)[C@@H](NC(=O)[C@H](C)NC(=O)[C@H](CC(C)C)NC(=O)[C@H](CC(C)C)NC(=O)[C@H](CC(C)C)NC(=O)[C@H](C)NC(=O)[C@H](CC(N)=O)NC(=O)[C@H](CC(N)=O)NC(=O)[C@H](C)NC(=O)[C@H](C)NC(=O)[C@H](CCC(N)=O)NC(=O)[C@H](CCC(N)=O)NC(=O)[C@H](CCCCN)NC(=O)[C@H](CCC(=O)O)NC(=O)[C@H](CCCCN)NC(=O)[C@H](CCC(=O)O)NC(=O)[C@H](CCC(N)=O)NC(=O)[C@H](CCCCN)NC(=O)[C@H](CCC(=O)O)NC(=O)[C@@H](NC(=O)[C@H](CCC(=O)O)NC(=O)[C@@H](NC(=O)[C@H](C)NC(=O)[C@H](CCCCN)NC(=O)[C@H](CCCNC(=N)N)NC(=O)[C@H](CC(C)C)NC(=O)[C@H](CC(C)C)NC(=O)[C@H](CCC(N)=O)NC(=O)[C@H](Cc1ccccc1)NC(=O)[C@@H]1CCCN1C(=O)[C@H](CC(C)C)NC(=O)[C@H](CC(=O)O)NC(=O)[C@@H](NC(=O)[C@H](CO)NC(=O)[C@@H](NC(=O)[C@@H]1CCCN1C(=O)[C@@H]1CCCN1C(=O)CNC(=O)[C@@H]1CCC(=O)N1)[C@@H](C)CC)[C@@H](C)CC)[C@@H](C)CC)[C@@H](C)CC)[C@@H](C)O)C(N)=O [compound 364] | 27% | 100% | – | –
3 | CC[C@H](C)[C@H](NC(=O)[C@H](CCCNC(=N)N)NC(=O)[C@H](C)NC(=O)[C@H](CC(C)C)NC(=O)[C@H](CC(C)C)NC(=O)[C@H](CCCNC(=N)N)NC(=O)[C@H](C)NC(=O)[C@H](CC(N)=O)NC(=O)[C@H](CC(N)=O)NC(=O)[C@H](C)NC(=O)[C@H](C)NC(=O)[C@H](CCC(N)=O)NC(=O)[C@H](CCC(N)=O)NC(=O)[C@H](CCCCN)NC(=O)[C@H](CCC(=O)O)NC(=O)[C@H](CCCCN)NC(=O)[C@H](CCC(=O)O)NC(=O)[C@H](CCC(N)=O)NC(=O)[C@H](CCCCN)NC(=O)[C@H](CCC(=O)O)NC(=O)[C@@H](NC(=O)[C@H](CCC(=O)O)NC(=O)[C@@H](NC(=O)[C@@H](NC(=O)[C@H](CCCCN)NC(=O)[C@H](CCCNC(=N)N)NC(=O)[C@H](CC(C)C)NC(=O)[C@H](CC(C)C)NC(=O)[C@H](Cc1c[nH]c2ccccc12)NC(=O)[C@@H](NC(=O)[C@@H]1CCCN1C(=O)[C@H](CC(C)C)NC(=O)[C@H](CC(=O)O)NC(=O)[C@@H](NC(=O)[C@H](CO)NC(=O)[C@@H](NC(=O)[C@@H]1CCCN1C(=O)[C@@H]1CCCN1C(=O)CNC(=O)[C@@H]1CCC(=O)N1)[C@@H](C)CC)[C@@H](C)CC)[C@@H](C)O)C(C)C)[C@@H](C)CC)[C@@H](C)CC)C(N)=O [compound 291] | 4.75% | 63.8% | – | –
4 | CC[C@H](C)[C@H](NC(=O)[C@@H](NC(=O)[C@H](CC(=O)O)NC(=O)[C@H](CC(C)C)NC(=O)[C@H](CC(C)C)NC(=O)[C@H](CC(C)C)NC(=O)[C@H](CCCNC(=N)N)NC(=O)[C@H](CC(N)=O)NC(=O)[C@H](CC(N)=O)NC(=O)[C@H](C)NC(=O)[C@H](C)NC(=O)[C@H](CCC(N)=O)NC(=O)[C@H](CCC(N)=O)NC(=O)[C@H](CCCCN)NC(=O)[C@H](CCC(=O)O)NC(=O)[C@H](CCCCN)NC(=O)[C@H](CCC(=O)O)NC(=O)[C@H](CCC(N)=O)NC(=O)[C@H](CCCCN)NC(=O)[C@H](CCC(=O)O)NC(=O)[C@@H](NC(=O)[C@H](CCC(=O)O)NC(=O)[C@@H](NC(=O)[C@H](CCSC)NC(=O)[C@H](CCCCN)NC(=O)[C@H](CCCNC(=N)N)NC(=O)[C@H](CC(C)C)NC(=O)[C@H](CC(C)C)NC(=O)[C@H](Cc1c[nH]c2ccccc12)NC(=O)[C@H](Cc1ccccc1)NC(=O)[C@@H]1CCCN1C(=O)[C@H](CC(C)C)NC(=O)[C@H](CC(=O)O)NC(=O)[C@@H](NC(=O)[C@H](CO)NC(=O)[C@@H](NC(=O)[C@@H]1CCCN1C(=O)[C@@H]1CCCN1C(=O)CNC(=O)[C@@H]1CCC(=O)N1)[C@@H](C)CC)[C@@H](C)CC)[C@@H](C)CC)[C@@H](C)CC)[C@@H](C)O)C(N)=O [compound 217] | 100% | 95% | – | –
5 | CC[C@H](C)[C@H](NC(=O)[C@@H](NC(=O)[C@H](CC(=O)O)NC(=O)[C@H](CC(C)C)NC(=O)[C@H](CC(C)C)NC(=O)[C@H](CCCNC(=N)N)NC(=O)[C@H](C)NC(=O)[C@H](CC(N)=O)NC(=O)[C@H](CC(N)=O)NC(=O)[C@H](C)NC(=O)[C@H](C)NC(=O)[C@H](CCC(N)=O)NC(=O)[C@H](CCC(N)=O)NC(=O)[C@H](CCCCN)NC(=O)[C@H](CCC(=O)O)NC(=O)[C@H](CCCCN)NC(=O)[C@H](CCC(=O)O)NC(=O)[C@H](CCC(N)=O)NC(=O)[C@H](CCCCN)NC(=O)[C@H](CCC(=O)O)NC(=O)[C@@H](NC(=O)[C@H](CCC(=O)O)NC(=O)[C@@H](NC(=O)[C@@H](NC(=O)[C@H](CCCCN)NC(=O)[C@H](CCCNC(=N)N)NC(=O)[C@H](CC(C)C)NC(=O)[C@H](CC(C)C)NC(=O)[C@H](CCC(N)=O)NC(=O)[C@H](Cc1ccc(O)cc1)NC(=O)[C@@H]1CCCN1C(=O)[C@@H](NC(=O)[C@H](CC(=O)O)NC(=O)[C@@H](NC(=O)[C@H](CO)NC(=O)[C@@H](NC(=O)[C@@H]1CCCN1C(=O)[C@@H]1CCCN1C(=O)CNC(=O)[C@@H]1CCC(=O)N1)[C@@H](C)CC)[C@@H](C)CC)C(C)C)C(C)C)[C@@H](C)CC)[C@@H](C)CC)[C@@H](C)O)C(N)=O [compound 374] | 11% | 91% | – | –
6 | CC[C@H](C)[C@H](NC(=O)[C@H](CCC(=O)O)NC(=O)[C@@H](NC(=O)[C@H](CCSC)NC(=O)[C@H](CCCCN)NC(=O)[C@H](CCC(=O)O)NC(=O)[C@H](CC(C)C)NC(=O)[C@H](CC(C)C)NC(=O)[C@H](CCC(N)=O)NC(=O)[C@H](CC(C)C)NC(=O)[C@@H]1CCCN1C(=O)[C@H](CC(C)C)NC(=O)[C@H](CC(=O)O)NC(=O)[C@@H](NC(=O)[C@H](CO)NC(=O)[C@@H](NC(=O)[C@@H]1CCCN1C(=O)[C@@H]1CCCN1C(=O)CNC(=O)[C@@H]1CCC(=O)N1)[C@@H](C)CC)[C@@H](C)CC)[C@@H](C)CC)C(=O)N[C@@H](CCC(=O)O)C(=O)N[C@@H](CCCCN)C(=O)N[C@@H](CCC(N)=O)C(=O)N[C@@H](CCC(=O)O)C(=O)N[C@@H](CCCCN)C(=O)N[C@@H](CCC(=O)O)C(=O)N[C@@H](CCCCN)C(=O)N[C@@H](CCC(N)=O)C(=O)N[C@@H](CCC(N)=O)C(=O)N[C@@H](C)C(=O)N[C@H](C(=O)N[C@H](C(=O)N[C@@H](CC(N)=O)C(=O)N[C@@H](C)C(=O)N[C@@H](CCCNC(=N)N)C(=O)N[C@@H](CC(C)C)C(=O)N[C@@H](CC(C)C)C(=O)N[C@@H](CC(=O)O)C(=O)N[C@@H](CCCNC(=N)N)C(=O)N[C@H](C(N)=O)C(C)C)[C@@H](C)O)[C@@H](C)O [compound 247] | 34% | 100% | ≥ 1000 nM | 18.8 nM
